Results on one substance are retold here after patent publication US6586191B2 (dated 2003).

Sequences of proteins named here, by UniProt entry; tags and fusion partners are left off. A change or cut given only in a name is not applied to a line headed by its entry.
UniProt P47211: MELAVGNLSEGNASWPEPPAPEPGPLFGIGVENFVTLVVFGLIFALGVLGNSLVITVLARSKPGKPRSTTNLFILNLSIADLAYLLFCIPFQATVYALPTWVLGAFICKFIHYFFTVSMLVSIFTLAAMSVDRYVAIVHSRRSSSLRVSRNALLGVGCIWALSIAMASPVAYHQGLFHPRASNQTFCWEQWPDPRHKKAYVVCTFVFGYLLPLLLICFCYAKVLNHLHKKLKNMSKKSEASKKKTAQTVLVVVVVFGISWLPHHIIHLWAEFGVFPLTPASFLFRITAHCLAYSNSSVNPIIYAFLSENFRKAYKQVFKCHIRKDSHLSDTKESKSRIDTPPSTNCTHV

For one assay, the target named is T1, human GALR2 receptor (Homo sapiens, UniProt O43603).
T1 sequence (O43603 1-387): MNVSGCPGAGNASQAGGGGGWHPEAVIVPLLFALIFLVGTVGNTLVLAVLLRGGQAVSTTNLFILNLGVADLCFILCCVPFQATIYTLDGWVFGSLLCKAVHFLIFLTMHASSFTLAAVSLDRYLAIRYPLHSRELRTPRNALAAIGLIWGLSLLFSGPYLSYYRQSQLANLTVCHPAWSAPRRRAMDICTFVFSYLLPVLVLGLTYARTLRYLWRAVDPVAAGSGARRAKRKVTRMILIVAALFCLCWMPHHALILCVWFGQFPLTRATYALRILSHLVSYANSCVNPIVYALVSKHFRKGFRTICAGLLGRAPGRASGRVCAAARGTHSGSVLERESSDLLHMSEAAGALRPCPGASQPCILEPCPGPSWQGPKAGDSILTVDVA
Nature of the assay: competition binding vs porcine 125I-galanin, human GALR2 (BO29) transiently expressed in COS-7 membranes. The note with it: read-out: Human GALR2 Ki.

Assay [1] addresses cloned human GALR1 receptor (Homo sapiens, UniProt P47211). To be noted: read-out: affinity (Ki vs. 125I-galanin); cited from earlier work.

Take rat galanin: the Ki was 1 nM at human GALR2 receptor and about 1 nM in assay [1].
